Assay results as given in PubChem BioAssay AID1665 (Sanford-Burnham Center for Chemical Genomics, 2009).
The list shows a part of the results, in another mix than the full data. The source made the active and inactive calls.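 Rule for the calls: active = nuclear translocation activity above 50% at 5 µM, with a well cell count of 50 or more; inconclusive = wells under 50 cells across six images, flagged as toxic; inactive = the rest.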

Test: beta-catenin nuclear localization change in HeLa – imaging, HeLa cells, immunofluorescence, high-content, primary screen (AID 1665);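 note: per-cell ratio of nuclear to cytoplasmic median beta-catenin stain intensity; plate controls were DMSO negative control for no effect and GSK-3 inhibitor IX positive control for full effect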
Conditions: at 5 µM, active compounds read high
Procedure, shortened: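 Test system: human HeLa cells, endogenous beta-catenin. Times: 24 h compound exposure, 37°C. Measured by: beta-catenin immunofluorescence imaging with DAPI.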

| Compound | nuclear translocation activity |
| --- | --- |
| c1ccc(CN2CCC(Nc3ccccc3)CC2)cc1 | inactive: -0.4% |
| N#Cc1ccc(C(=O)NCC2(N3CCCCC3)CCCCC2)cc1 | inactive: -1.5% |
| O=C(OC1CN2CCC1CC2)C1c2ccccc2C=Cc2ccccc21 (configuration not stated) | inactive: -0.6% |
| N/C(=N\O)c1c(N)no[n+]1[O-] | inactive: -2.8% |
| COc1ccc(C(=O)NCC2(N3CCOCC3)CCCCC2)cc1OC | inactive: -0.7% |
| CCCOc1ccc(C)cc1CN(CCCl)CCCl | inactive: -0.8% |
| COc1cc(OC)cc(C(=O)NCC2(N3CCOCC3)CCCCC2)c1 | inactive: -3% |
| CCC(CO)(C(=O)OC1CN2CCC1CC2)c1ccccc1 (configuration not stated) | inactive: 2% |
| CC(C)(C)OC(=O)N1CCC(Nc2ccccc2)CC1 | inactive: -3.1% |
| CCOc1ncccc1C(=O)NCC1(N2CCOCC2)CCCCC1 | inactive: -4.1% |
| CN(C)c1ccc(C(=O)NCC2(N3CCCCC3)CCCCC2)cc1 | inactive: -0.6% |
| CCN1CCC(Nc2cccc(F)c2)CC1 | inactive: -3.4% |
| Fc1ccccc1NC1CCN(Cc2ccccc2)CC1 | inactive: -1.4% |
| Cc1ccc(OCC(C)C)c(CN(CCCl)CCCl)c1 | inactive: 0.3% |
| COc1ccc(NC2CCN(CCc3ccccc3)CC2)c(OC)c1 | inactive: -4.5% |
| CCOc1ccc(C)cc1CN(CCCl)CCCl | inactive: -4.1% |
| N#CC1(Nc2ccccc2)CCN(Cc2ccccc2)CC1 | inactive: -1% |
| O=C(OC1CN2CCC1CC2)C1c2ccccc2Oc2ccccc21 (configuration not stated) | inactive: -4.1% |
| O=C(NCC1(N2CCOCC2)CCCCC1)c1cc2ccccc2o1 | inactive: -3.1% |
| COc1ccc(C(=O)NCC2(N3CCCCC3)CCCCC2)c(OC)c1OC | inactive: 0.5% |
| CC(C)c1ccc(NC2CCN(C(=O)OC(C)(C)C)CC2)cc1 | inactive: -1.5% |
| CN(C)c1cccc(C(=O)NCC2(N3CCCCC3)CCCCC2)c1 | inactive: 1% |
| COc1ccc(CN(CCCl)CCCl)cc1Cl | inactive: -1% |
| CN1CCN(CCOC(=O)C(O)(c2ccccc2)c2ccccc2)CC1 | inactive: -2% |
| COc1ccc(NC2CCN(C(=O)OC(C)(C)C)CC2)cc1 | inactive: -0.2% |
| N#CC1(Nc2ccccc2)CCN(CCc2ccccc2)CC1 | inactive: -0.4% |
| O=C(NCC1(N2CCCCC2)CCCCC1)c1cccc([N+](=O)[O-])c1 | inactive: -4.1% |
